AlphaSeq binding of Ab-14 light chain variants to a spike HR2 peptide

The measurements come from Li et al. 2023 (doi:10.1038/s41467-023-39022-2) through the FLAb antibody collection.

All variants were tested on one target, the spike HR2 peptide PDVDLGDISGINAS (SARS-CoV-2).

Parent scFv Ab-14: VH joined to VL by a (GGGGS)3 linker. Changes lie in the light chain CDRs alone.
VH: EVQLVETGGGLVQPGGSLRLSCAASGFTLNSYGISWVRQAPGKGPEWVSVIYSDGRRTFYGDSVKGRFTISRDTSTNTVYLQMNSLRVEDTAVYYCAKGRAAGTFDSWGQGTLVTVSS
VL: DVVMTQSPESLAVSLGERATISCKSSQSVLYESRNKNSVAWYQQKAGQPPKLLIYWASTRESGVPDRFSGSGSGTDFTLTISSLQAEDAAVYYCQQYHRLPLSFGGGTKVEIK

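The starting antibody came from a phage panning campaign against this peptide. These sequences belong to a second round, designed from the earlier measurements on random variants of the parent. Group labels follow the data file (Ctrl: baseline library sampled from a position-specific scoring matrix, with some repeated check sequences; Rand: our label for a block that the file lists under HC and that is probably the random mutants of the ten best first-round binders; GP: Gaussian process model; HC: hill climbing; Gen: genetic algorithm; Gibbs: Gibbs sampling; a sequence that several methods proposed may carry one label only). In AlphaSeq, yeast of one mating type display the scFv and yeast of the other type display the target. Mating (16 h, 30 °C) was followed by selection of diploids and sequencing of their barcodes. Scores were corrected for input abundance and mapped to Kd with protein pairs of known affinity run in the same pool. There are six technical replicates.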

Positions count from residue 1 of the parent VL; K24S puts S in place of K.
This list holds designs with at most six substitutions.
Values are apparent Kd, the geometric mean of the replicates that gave a signal; lower means stronger binding.
A pair that was not seen in any replicate is written "no signal"; this usually means weak binding, but a binder can also be missed.

With K24S S25L W56N [GP_Gen] the result was 470 pM (6 of 6 replicates). For S25V V29W W56Q T59Q [GP_Gen], the assay gave 810 pM (6 of 6 replicates). Variant E32Q R34K H98M [Ctrl] showed 95 nM (6 of 6 replicates). With S25V N35A W56N [GP_HC] the result was 570 pM (6 of 6 replicates). Variant L30Y Y31Q N35G S103D [Ctrl] showed no signal (0 of 6 replicates). Variant S25W Q27C V29Q E32D R34Q S62M [GP_Gibbs] showed 19 nM (4 of 6 replicates).

Variant S25L W56N T59Q S103M [GP_Gen] gave 570 pM (6 of 6 replicates). For V29W K36F W56N [GP_Gen], the assay gave 1.0 nM (6 of 6 replicates). For S25L S26Q S28L V29W W56N [GP_Gen], the assay gave 2.5 nM (6 of 6 replicates). For S25L V29D W56S T59Q [GP_Gen], the assay gave 560 pM (6 of 6 replicates). Variant S25L L30E S38N W56N [GP_Gen] gave 4.0 nM (6 of 6 replicates). Variant Q27M S28C V29F W56G P101T L102W [Rand] gave no signal (0 of 6 replicates).

Variant Q27T V29Y R34M W56E [GP_HC] gave 2.9 nM (6 of 6 replicates). Variant Q27E Y31Q [Ctrl] gave 44 nM (1 of 6 replicates). For Q95S H98S [Ctrl], the assay gave 130 nM (1 of 6 replicates). With S38H E61V [Ctrl] the result was 42 nM (2 of 6 replicates). Variant S25L W56D S62K [GP_Gen] gave 1.6 nM (6 of 6 replicates). With S26A W56G A57G [Ctrl] the result was 2.4 nM (6 of 6 replicates).

With S25L V29H W56D E61L [GP_Gen] the result was 1.4 nM (6 of 6 replicates). With K24V S25M L30P R34L W56E [Ctrl] the result was 2.5 nM (6 of 6 replicates). With S25L Q27C S28G L30D W56G Q96A [GP_Gibbs] the result was 920 pM (6 of 6 replicates). For K24H Q27P L30E Y31M W56N [GP_HC], the assay gave 550 pM (6 of 6 replicates). Variant S25V E32Q W56E [GP_Gen] gave 620 pM (6 of 6 replicates). Variant S25L S26M V29Q W56H T59L S62D [GP_HC] gave 2.4 nM (6 of 6 replicates).

For S25M V29W W56G T59A S62V [GP_HC], the assay gave 710 pM (6 of 6 replicates). For S25L S26Q S28Q V29S E32W W56E [GP_Gibbs], the assay gave 1.1 nM (6 of 6 replicates). With Q27W L30K Y31F W56D [GP_HC] the result was 1.4 nM (6 of 6 replicates). With S25V N35M W56N T59Q [GP_Gen] the result was 1.3 nM (6 of 6 replicates). Variant S25M S26D S28G V29A W56G [GP_HC] showed 11 nM (6 of 6 replicates). Variant S28G V29T L30G L100T [Ctrl] showed no signal (0 of 6 replicates).

With V29W S38N W56G T59F [GP_HC] the result was 430 pM (6 of 6 replicates). Variant S25F Q27W K36C T59E [Ctrl] showed 20 nM (6 of 6 replicates). Variant S25V V29Q W56D [GP_Gen] gave 880 pM (6 of 6 replicates). With Y31E W56D Q95P [Ctrl] the result was no signal (0 of 6 replicates). Variant S25Q R34V N37S W56D [GP_HC] gave 5.7 nM (6 of 6 replicates). With L30V S33Q R34G W56D Y97V [Ctrl] the result was 330 nM (4 of 6 replicates).

Variant S25L S26Q S33E W56N [GP_Gen] showed 1.0 nM (6 of 6 replicates). Variant K24M S26C R34G P101W [Ctrl] gave no signal (0 of 6 replicates). Variant S25L V29D S38N W56N E61M [GP_Gen] showed 30 nM (3 of 6 replicates). Variant S25L L30M N35M W56N E61M [GP_Gen] showed 4.4 nM (6 of 6 replicates). With S25L S26Y L30G W56N [GP_Gen] the result was 2.6 nM (6 of 6 replicates). Variant A57G S62L [Ctrl] gave 8.2 nM (6 of 6 replicates).

Excerpt, the final 4 entries:

With S25L V29D S38N W56N E61M [GP_Gen] the result was 30 nM (3 of 6 replicates).
With S25L L30M N35M W56N E61M [GP_Gen] the result was 4.4 nM (6 of 6 replicates).
With S25L S26Y L30G W56N [GP_Gen] the result was 2.6 nM (6 of 6 replicates).
With A57G S62L [Ctrl] the result was 8.2 nM (6 of 6 replicates).

In the paper, a design with two or fewer of six values counts as a poor binder.
The parent sequence was in this pool as ten entries: three were never detected, three once, and four in most replicates, with averages from 2.2 nM to 240 nM.
The range of this assay differs from that of the first round, and the authors advise against merging the two.
Background: pairings of all light chain designs with three empty control strains gave a value in 4% of cases (median 430 nM, 5th percentile 38 nM). Values in that range, when seen in few replicates, are hard to tell from nonspecific mating.